Antibody variant affinities, Ab-91 heavy chain, assay 2

Reference: Engelhart et al. 2022, doi:10.1038/s41597-022-01779-4. File: FLAb, binding data.

The target is the same throughout: PDVDLGDISGINAS, from the HR2 region of SARS-CoV-2 spike.

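The starting antibody came from a phage panning campaign against this peptide. Library AAYL51 holds single substitutions and randomly drawn double and triple substitutions in the CDRs. The assay is AlphaSeq: two haploid yeast populations carry antibody and antigen on their surface. After mating in shaken culture at 30 °C for 16 h, diploids were selected and their barcode pairs sequenced. Read counts were normalised to the haploid input and turned into Kd by a linear fit to BCL2-family pairs of known affinity, for each replicate. Mating was done three times.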

The variants keep the light chain, the linker and the frameworks of Ab-91 (scFv order VL, the linker GGGGSGGGGSGGGGS, VH).
VL: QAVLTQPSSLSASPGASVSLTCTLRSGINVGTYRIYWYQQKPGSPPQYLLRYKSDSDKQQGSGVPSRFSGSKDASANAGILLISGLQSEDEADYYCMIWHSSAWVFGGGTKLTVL
VH: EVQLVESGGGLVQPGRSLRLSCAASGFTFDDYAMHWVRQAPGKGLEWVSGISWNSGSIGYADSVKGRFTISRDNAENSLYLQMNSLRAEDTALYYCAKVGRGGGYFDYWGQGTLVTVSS

Each variant is given by its three heavy chain CDRs, as the data file delimits them; those of the parent are GFTFDDYAMH, GISWNSGSIGYADSVK, VGRGGGYFDY.
Kd is apparent (estimated from mating counts) and averaged on the log scale over replicates with a signal. Smaller is tighter.
An entry "nd" has no value in the source: the pair was not observed among the diploids in any replicate. This suggests poor binding but is not conclusive.
Nonspecific signal, from three strains lacking the peptide, appeared in 21% of pairings of library AAYL51, centred on 34 µM (5% of these signals below 1.8 µM); values are not corrected for it.
For reference, the parent read 72 nM as the reference entry and 7.5 nM as a member of this library.

CDR-H1,CDR-H2,CDR-H3,apparent Kd,replicates with signal
GFTFDDYAMH,GIPWNSGSIGYAESVK,VGGGGGYFDY,nd,0/3
IFTFDDYAGH,GISWNSQSIGYADSVK,VGRGGGYFDY,nd,0/3
GFTHKDYAMH,GISWNSGSIIYADSVK,VGRGGGYFDY,nd,0/3
GFTGDDYAMH,GISWNSLSIGYADSVK,VNRGGGYFDY,28 µM,1/3
GATFDWYAMH,GISWNSGSIGYADSVK,VGRGGGWFDY,nd,0/3
GFTWDDYAMH,GICWNSGSIGYHDSVK,VGRGGGYFDY,47 µM,2/3
GFTFDDTLMH,FISWNSGSIGYADSVK,VGRGGGYFDY,nd,0/3
GFTFDDYAMH,GNSWWSGRIGYADSVK,VGRGGGYFDY,260 µM,2/3
GFTFDDYASH,GISWNSGSIGYADSQE,VGRGGGYFDY,170 µM,2/3
GFTFDDWIMH,GISWNSGSIGYADSVK,VGRGGGNFDY,1.1 mM,2/3
GFTFDDYAMH,DITWNSGSIGYADSVK,VGRGSGYFDY,nd,0/3
IFTFFDYAMH,GIEWNSGSIGYADSVK,VGRGGGYFDY,nd,0/3
GFTFDDLAMH,GISWNSGSIGYGDSVK,VGRGGGHFDY,80 µM,1/3
GFTFDDYAMH,GISWTSGSIGYYYSVK,VGRGGGYFDY,19 µM,1/3
GFTFDDYHMH,GISWNSGSSGYADSVK,VTRGGGYFDY,nd,0/3
GFTFDDYAMH,GISWNMGSIGYADSVK,VGYGGGYFTY,95 µM,2/3
GFTFDDYAMH,GISWNSGSIGYCDSVK,VIYGGGYFDY,nd,0/3
GFTFDDYAMH,GISWNSGSMGYAFSVK,VGRGGGYFDY,nd,0/3
TFTFDDYAMH,GISWNSFSIGYADLVK,VGRGGGYFDY,540 µM,2/3
GFTFDDFAMH,GISWNSGSIDYADSVK,VGPGGGYFDY,26 µM,2/3
GFTFDDYAMH,GISWNSWSIGYADSVK,PGRGGGYFDY,14 µM,1/3
GFTDDDYAMH,GISWNSGSISYMDSVK,VGRGGGYFDY,nd,0/3
GFTFFDYAPH,GISWNSGSIGYADSVK,VGRGGGYFDD,77 µM,1/3
GCTFDDYAMH,GISWNSGSIGYLDSVK,VGRGGGYFDY,9.4 µM,2/3
GFTFDDYAMK,GISWNSGSWGYADSVK,VGRGNGYFDY,26 µM,1/3
GFTFDDYAMH,GISWNSWSYGYANSVK,VGRGGGYFDY,2.5 µM,2/3
GFTFDDYAMH,WISWNVGSIGYADSVK,VGRFGGYFDY,nd,0/3
GFTFDDYAMH,GNSWNSGSEGYADSVK,VGRGGGYFDY,nd,0/3
GFTFDSYIMH,GISWNSGSIGYADSVK,VGRGGGSFDY,nd,0/3
GFTFDDYAMH,GISWNSGSIGFADSVK,CGRGRGYFDY,240 µM,2/3
GFTFDDYAMH,GISWISGSFGYADSFK,VGRGGGYFDY,62 µM,1/3
GRTFEDYAVH,GISWNSGSIGYADSVK,VGRGGGYFDY,nd,0/3
GFTFDDYAMH,GISWNSGSIGYADSVK,VGMGTGHFDY,2.1 mM,3/3
GFTFDDHAMH,GISWNSGSIGYADSVM,VGRGGGYFCY,nd,0/3
GFTFDDYAMH,GKSWNSGHIGYADSVK,VGRGSGYFDY,nd,0/3
GMLFDDYAMH,GISWNSGSIGIADSVK,VGRGGGYFDY,nd,0/3
GWTTDDYAMH,GISWNSGSIGYAMSVK,VGRGGGYFDY,nd,0/3
GFTFDDYAMH,GISWNSGSIGYADSVK,VVRGGSYFHY,120 nM,3/3
GFTPDDYAMH,GISWNSLSIGYMDSVK,VGRGGGYFDY,nd,0/3
GFTFDDYAMH,GISWNSGSINYADSVQ,VGRGGGYFDE,130 µM,1/3
GHTFDDYAMH,GISWNSGSIGYADSYK,VGRGGGYFDY,14 µM,1/3
GFTFADYAIH,GISWNSGSIGYADCVK,VGRGGGYFDY,64 µM,1/3
GFTFWDYAMH,GISWNSCSIGYADSVK,VGRGGGYFVY,nd,0/3
GFTFDDYAML,GISWNSGHIGYADSVK,VGRGGGYHDY,170 µM,2/3
GFTFDDYAMH,GISWNSGSIGYWDSVK,VGRGGMYEDY,9.2 µM,1/3
GFTFDDYAMH,GISWNSGSIGYADMVS,VGRGGGYVDY,nd,0/3
GFTFDDYAMH,GVSLNSGSIGYADSVK,VGRGGGYFHY,3.9 µM,1/3
GFTFDDYHMH,GISWNSGSIGYADSVK,VGRGPGYFEY,59 µM,2/3
GFTFDDYAMH,GISWNSGSIGYADSVK,VTWGGGYFDY,nd,0/3
GFTFDDYAMH,GISDNSGSYGYADSVK,VGRGGGYFDY,120 µM,3/3
GFTFDDYAMH,GISWNSWSIGYADSVK,VGRCGGYFDY,nd,0/3
GFTFDDYAMH,GINWNSGSIGYADMVK,GGRGGGYFDY,nd,0/3
GFTFDDYAMH,IISWNSGSIGYADSRK,VGREGGYFDY,nd,0/3
GFTFDEYAMH,GISWNSGNIGYADSVK,VGRGGGYFDQ,13 µM,1/3
GFTFQDYAMH,GISGNSGSIGYADSVK,VARGGGYFDY,310 nM,3/3
GSTFDDYAMH,GISWNSKSIGYADSVK,VGRGGGYMDY,nd,0/3
GFTFEDYAMH,PISWNSGSIGYAVSVK,VGRGGGYFDY,46 µM,1/3
GFTFDVYAMH,GISWNSGSIGYNDSVK,VGRGDGYFDY,nd,0/3
GFTFDDYAMH,TISWNSGSIGYAFSVK,VGRHGGYFDY,nd,0/3
GFTFDQYAMH,GISWNSGSIHYADSVK,VGRGGGYFKY,78 nM,3/3
GATFDDYAMA,GISWNSGSIWYADSVK,VGRGGGYFDY,61 µM,2/3
GFTFDRYAMH,GISKNSGSIGFADSVK,VGRGGGYFDY,nd,0/3
GFTFDVYAMH,GISWNSGQIGYADSVK,VGRGGGYGDY,nd,0/3
GFTFPDYAMH,GISWPSGSIGYADSVK,VGRGGPYFDY,200 µM,3/3
PFTFDDYTMH,GISWNSGSIGYADLVK,VGRGGGYFDY,32 µM,3/3
LFTFDDYAMH,GISWNSGHIGYADSVK,VGRGGGYFDY,nd,0/3
GFTFDDYEMH,GISWNSGSIGYALSVI,VGRGGGYFDY,nd,0/3
GFTFDDYAMH,GISWNNGSIGYADSVK,VGREGGYFDY,nd,0/3
GFTFDTYTMH,GISWNSGSIGYADSVK,VGRGGGYSDY,nd,0/3

For reference, 8 entries of the list once more:

CDR-H1,CDR-H2,CDR-H3,apparent Kd,replicates with signal
GFTFDDYAMH,GISWNSGSINYADSVQ,VGRGGGYFDE,130 µM,1/3
GFTHKDYAMH,GISWNSGSIIYADSVK,VGRGGGYFDY,nd,0/3
GFTFDDYAML,GISWNSGHIGYADSVK,VGRGGGYHDY,170 µM,2/3
GATFDDYAMA,GISWNSGSIWYADSVK,VGRGGGYFDY,61 µM,2/3
PFTFDDYTMH,GISWNSGSIGYADLVK,VGRGGGYFDY,32 µM,3/3
GFTFDEYAMH,GISWNSGNIGYADSVK,VGRGGGYFDQ,13 µM,1/3
GFTFDVYAMH,GISWNSGQIGYADSVK,VGRGGGYGDY,nd,0/3
GFTFDDYAMH,GISWNSGSIGYWDSVK,VGRGGMYEDY,9.2 µM,1/3